{"source": "patent US11911467B2", "about": "“Composition comprising PIC for treatment of cancer” (Yisheng Biopharma (Singapore) PTE LTD, priority 2016, dated 2024)", "system": "LL/2 murine Lewis lung tumor", "details": "end of study; 0.2 mL/mouse i.m. Q2D total 7 times; Cisplatin 5 mg/kg i.v. total 2 times"}
{"substance": "Cisplatin", "values": [{"measurement": "Relative tumor proliferation rate T/C", "value": 47.46, "unit": "%"}, {"measurement": "Tumor inhibition rate (tumor weight)", "value": 42.38, "unit": "%"}]}
